Experimental data as given in BindingDB's records for patent US20240239774 (Cornell University, 2024).
“And” between values parts separate entries of the source, which are not always exact repeats. Identical values can stand only once.

Chains of the proteins cited; added tags and fusions are not shown. Lines headed by an entry give the natural chain unless they say otherwise; changes in a name come on top.
UniProt Q96PN6: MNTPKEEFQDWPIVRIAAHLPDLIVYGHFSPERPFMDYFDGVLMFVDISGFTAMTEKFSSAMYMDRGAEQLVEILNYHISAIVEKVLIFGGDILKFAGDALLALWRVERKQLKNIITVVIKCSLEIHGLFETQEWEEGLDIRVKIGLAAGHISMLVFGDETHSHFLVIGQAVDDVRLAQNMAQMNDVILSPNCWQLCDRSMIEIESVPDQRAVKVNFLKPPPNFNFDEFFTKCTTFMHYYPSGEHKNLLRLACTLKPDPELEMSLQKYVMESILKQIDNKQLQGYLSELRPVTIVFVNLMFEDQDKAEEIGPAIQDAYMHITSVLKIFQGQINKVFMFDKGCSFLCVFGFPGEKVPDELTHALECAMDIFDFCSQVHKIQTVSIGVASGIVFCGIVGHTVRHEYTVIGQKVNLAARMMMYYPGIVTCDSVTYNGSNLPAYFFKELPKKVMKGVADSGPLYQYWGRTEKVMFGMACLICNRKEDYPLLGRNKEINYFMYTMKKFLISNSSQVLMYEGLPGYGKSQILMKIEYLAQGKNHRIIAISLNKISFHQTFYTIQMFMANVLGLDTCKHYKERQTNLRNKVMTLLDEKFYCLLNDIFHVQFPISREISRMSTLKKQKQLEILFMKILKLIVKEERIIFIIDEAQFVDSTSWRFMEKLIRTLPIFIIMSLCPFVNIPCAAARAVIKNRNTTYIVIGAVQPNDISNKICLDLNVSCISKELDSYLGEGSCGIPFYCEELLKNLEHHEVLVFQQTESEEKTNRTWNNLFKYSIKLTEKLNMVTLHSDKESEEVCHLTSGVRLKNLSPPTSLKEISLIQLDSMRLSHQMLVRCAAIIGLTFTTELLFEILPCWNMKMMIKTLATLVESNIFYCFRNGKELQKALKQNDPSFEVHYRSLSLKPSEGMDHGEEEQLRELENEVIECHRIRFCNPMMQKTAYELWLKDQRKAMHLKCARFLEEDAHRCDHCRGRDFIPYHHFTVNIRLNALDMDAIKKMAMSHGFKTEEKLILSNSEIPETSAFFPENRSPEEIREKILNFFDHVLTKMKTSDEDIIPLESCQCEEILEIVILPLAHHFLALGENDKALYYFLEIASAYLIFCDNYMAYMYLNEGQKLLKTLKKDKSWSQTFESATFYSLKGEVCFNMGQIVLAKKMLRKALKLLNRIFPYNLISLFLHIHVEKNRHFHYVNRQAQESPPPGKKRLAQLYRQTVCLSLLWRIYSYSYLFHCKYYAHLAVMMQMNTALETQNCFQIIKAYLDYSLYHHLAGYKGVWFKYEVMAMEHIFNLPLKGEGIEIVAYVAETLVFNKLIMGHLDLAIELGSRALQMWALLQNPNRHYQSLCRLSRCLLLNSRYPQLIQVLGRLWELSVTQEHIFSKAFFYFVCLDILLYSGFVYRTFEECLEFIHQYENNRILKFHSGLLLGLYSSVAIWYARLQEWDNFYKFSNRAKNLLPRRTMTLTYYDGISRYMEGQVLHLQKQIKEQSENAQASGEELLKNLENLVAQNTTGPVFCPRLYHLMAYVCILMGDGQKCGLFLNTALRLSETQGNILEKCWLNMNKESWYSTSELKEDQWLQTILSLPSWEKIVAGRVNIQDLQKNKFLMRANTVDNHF

Molecular target: Adenylate cyclase type 10 (Homo sapiens, UniProt Q96PN6)
Test: sAC Biochemical Cyclase Assay

Row | IC50 | Structure (SMILES)
1 | 80 nM and 690 nM | Nc1nc(Cl)cc(-c2nn(C(F)F)cc2Cc2ccccc2OCCN2CCS(=O)(=O)CC2CO)n1 (single isomer, unassigned) [US20240239774, Example 179]
2 | 1.6 nM | Cn1cc(Cc2ccccc2OCCN2CCOCC2)c(-c2cc(Cl)nc(N)n2)n1 [US20240239774, Example 82]
3 | 5 nM | Cn1cc(Cc2ccccc2OCCN2C[C@H]3C[C@@H]2CO3)c(-c2cc(Cl)nc(N)n2)n1 [US20240239774, Example 107]
4 | 8 nM | Cn1cc(Cc2ccccc2OCCN2CCNC(=O)C2)c(-c2cc(Cl)nc(N)n2)n1 [US20240239774, Example 120]
5 | 5 nM | Cn1cc(Cc2ccccc2OCCN2CC3(COC3)C2)c(-c2cc(Cl)nc(N)n2)n1 [US20240239774, Example 123]
